The source of these data is US9718800B2, “Chromenone derivatives” (AstraZeneca AB, priority 2009, dated 2017).

Sequences of proteins named here, by UniProt entry; tags and fusion partners are left off. A change or cut given only in a name is not applied to a line headed by its entry.
UniProt P42338: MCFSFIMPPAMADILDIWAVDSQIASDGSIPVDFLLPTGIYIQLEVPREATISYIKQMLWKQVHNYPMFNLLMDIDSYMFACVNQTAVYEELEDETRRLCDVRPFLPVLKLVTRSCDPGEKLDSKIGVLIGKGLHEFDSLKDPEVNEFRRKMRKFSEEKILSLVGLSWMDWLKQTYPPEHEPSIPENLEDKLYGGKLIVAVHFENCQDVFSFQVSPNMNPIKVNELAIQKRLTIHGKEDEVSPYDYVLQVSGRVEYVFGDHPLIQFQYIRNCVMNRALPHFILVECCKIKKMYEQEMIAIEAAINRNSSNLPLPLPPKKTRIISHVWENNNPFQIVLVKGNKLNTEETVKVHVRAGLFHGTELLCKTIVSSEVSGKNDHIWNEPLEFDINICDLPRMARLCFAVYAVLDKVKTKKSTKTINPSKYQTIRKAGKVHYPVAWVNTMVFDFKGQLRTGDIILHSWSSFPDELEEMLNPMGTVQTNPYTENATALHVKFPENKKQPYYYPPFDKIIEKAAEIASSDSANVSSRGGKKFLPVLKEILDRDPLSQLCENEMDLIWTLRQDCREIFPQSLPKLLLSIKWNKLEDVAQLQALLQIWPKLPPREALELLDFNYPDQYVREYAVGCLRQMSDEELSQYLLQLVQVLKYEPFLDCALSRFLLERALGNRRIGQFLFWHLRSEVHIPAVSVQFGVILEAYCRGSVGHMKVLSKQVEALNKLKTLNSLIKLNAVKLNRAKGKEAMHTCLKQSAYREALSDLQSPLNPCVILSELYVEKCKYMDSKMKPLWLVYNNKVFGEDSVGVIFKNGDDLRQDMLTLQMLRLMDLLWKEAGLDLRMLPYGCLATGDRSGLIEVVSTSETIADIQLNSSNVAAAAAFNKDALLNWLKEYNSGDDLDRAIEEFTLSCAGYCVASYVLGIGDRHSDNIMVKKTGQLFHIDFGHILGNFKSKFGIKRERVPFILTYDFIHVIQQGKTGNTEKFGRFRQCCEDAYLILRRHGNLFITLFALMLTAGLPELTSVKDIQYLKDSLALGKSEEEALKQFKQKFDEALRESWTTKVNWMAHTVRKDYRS

For the assay, the target named is PI3Kβ (Homo sapiens (Human), UniProt P42338). Kind of assay: In vitro enzyme inhibition assay (Kinase Glo based enzyme activity assay). The assay is classed as biochemical. Particulars: (+) enantiomer of Example 3.06 versus the other enantiomer; assay not specified. The method, then:
(a) In Vitro Enzyme Inhibition Assay
The inhibition of PI3Kβ, PI3Kα, PI3Kγ and PI3Kδ was evaluated in a Kinase Glo based enzyme activity assay using human recombinant enzymes. The assay measures depletion of ATP after incubation with enzyme, PIP2 and ATP plus compound. ATP at the end of the reaction is detected by addition of Kinase Glo reagent, in this the Ultra Glo™ luciferase (Promega) uses the ATP as a substrate to catalyze the mono-oxygenation of luciferin and the generation of light. A direct relationship exists between the luminescence measured with the Kinase-Glo Plus Reagent and the amount of ATP remaining in a completed kinase reaction and luminescence is inversely related to kinase activity.
Compounds in 100% DMSO were added to assay plates by acoustic dispensing. PI3Kβ was added in a Tris buffer (50 mM Tris pH7.4, 0.05% CHAPS, 2.1 mM DTT, and 10 mM MgCl2) and allowed to preincubate with compound for 20 minutes prior to addition of substrate solution containing PIP2 and ATP. The enzyme reaction was stopped after 80 minutes by the addition of Kinase Glo detection solution. Plates were left for 30 minutes at room temperature then read on a Pherastar Instrument (Luminescence ATP 384 program) setting gain on max well. […]
IC50 values were calculated using a log curve fitting to a non-linear regression package, fitting raw data to inhibitor concentration.
On the technique in general: In Kinase-Glo more light means more ATP remaining.

Molecules are shown by their SMILES.

For `CC(Nc1cc(F)cc(F)c1)c1cc(C(=O)N(C)C)cc2c(=O)cc(N3CCOCC3)oc12` (stereo not shown) [Example 3.06a, 8-(1-(3,5-difluorophenylamino)ethyl)-N,N-dimethyl-2-morpholino-4-oxo-4H-chromene-6-carboxamide], the “activity of the enantiomer relative to the other enantiomer” value is on record as “weaker activity”.
